These results are taken from US20090131331A1 (DSM IP ASSETS B.V., priority 2005, published 2009).

For data set [1], the system named is ACE. Nature of the data set: at-line ACE inhibition assay. Type of data set: biochemical. The procedure:
For the at-line ACE inhibition assay 27 μl of a 33.4 mU ml^−1 ACE (enzyme obtained from Sigma) in phosphate buffered saline (PBS) pH 7.4 with a chloride concentration of 260 mM was added and the mixture was allowed to incubate for 5 minutes on a 96 well plate mixer at 700 RPM. After the incubation period 13 μl of a 0.35 mM hippuric acid-histidine leucine (HHL) solution in PBS buffer was added and mixed for 1 minute at 700 RPM. The mixture was allowed to react for 60 minutes at 50° C. in a GC-oven. After the reaction the plate was cooled in melting ice.
The 96 well plate was then analysed on a flash-HPLC-column. Of the reaction mixture of each well 30 μl was injected on a Chromlith Flash RP18e 25×4.6 mm HPLC column (Merck, Darmstadt, Germany) equipped with a 10×4.6 mm RP18e guard column from the same supplier. The isocratic mobile phase consisted of a 0.1% solution of TFA in water/acetonitrile 79/21. […] Hippuric acid (H) and HHL were monitored at 280 nm. The peak heights of H and HHL were measured and the ACE inhibition (ACEI) of each fraction was calculated according to the equation: […]
• DCw Degree of Cleavage by ACE of HHL to H and HL in water • DCa Degree of Cleavage of HHL to H and HL for the analyte The Degree of Cleavage was calculated by expressing the peak height of H as a fraction of the sum of the peak heights of H and HHL.

Data set [2] in a line: Simulated in-vitro gastro-intestinal digestion of synthetic MAP and ITP (micro-dissolution). It is filed as in vitro ADME. The following applies: for % average remaining: 0 minutes; for remaining at 65 min, 10 microgram/ml / remaining at 1.5 h, 10 microgram/ml / remaining at 2 h, 10 microgram/ml: simulated intestinal fluid, pH 6.8.
Data set [3] can be described thus: gastro-intestinal treatment (GIT procedure) of CDBAP, simulated human gastro-intestinal tract. It is filed as in vitro ADME. On the procedure:
After consumption, dietary proteins and peptides are exposed to various digestive enzymatic processes in the gastrointestinal tract. […] Samples obtained after various incubation times in the GIT model system were analysed using the on-line HPLC-Bioassay-MS or HRS-MS system to quantify any residual MAP and ITP peptides. The GIT procedure was performed in a standardized mixing device incorporating a 100 ml flask (as supplied by Vankel, US). The temperature of the water bath was set to 37.5° C. and the paddle speed was chosen such that the sample was kept in suspension (100 rpm). […] During gastric simulation 5 M HCl was used to decrease the pH. At the end of gastric simulation and during the duodenal phase 5 M NaOH was used to raise the pH. […] At t=0 min the 5 ml with the now dissolved pepsin was added back to the suspension. […] [table] At t=90 min 0.139 g of 8 times USP pancreatin (Sigma order no. […] The incubation continued according to the following scheme: [table] The experiment was stopped at t=125 min and the pH was checked (was still pH 7). Then the samples were transferred into a beaker and were placed in a microwave till boiling. Subsequently, the samples were transferred into glass tubes and incubated at 95° C. for 60 min to inactivate all protease activity. […] The supernatant was freeze dried. The total N concentration of the powder as obtained was determined and converted to protein level using the Kjeldahl factor of casein (6.38). […] The levels of MAP and ITP surviving the proteolytic treatment according to the GIT procedure were determined as described in Example 7 and the data obtained are shown in Table 10.

Data set [4] concerns ACE. Put plainly: modified Matsui ACE inhibition assay. The following applies: as stated in description text; read-out: IC50 value in the Modified Matsui test. Type of data set: biochemical. On the procedure:
To determine the ACE inhibition activity of MAP and ITP, the chemically synthesised tripeptides were assayed according to the method of Matsui et al. (Matsui, T. et al. (1992) Biosci. Biotech. Biochem. 56: 517-518) with some minor modifications.
Each one of the four samples contained 75 μl 3 mM hippuryl histidine leucine (Hip-His-Leu, Sigma) dissolved in a 250 mM borate solution containing 200 mM NaCl, pH 8.3. ACE was obtained from Sigma. The mixtures were incubated at 37° C. and stopped after 30 min by adding 125 μl 0.5 M HCl. […] After incubation for 20 min. at 37° C., 4 ml 4 mM Na2SO3 in 0.2 M NaH2PO4 was added and the light absorbance at 416 nm was measured with UV/Vis spectrophotometer (Shimadzu UV-1601 with a CPS controller, Netherlands).
The amount of ACE inhibition (ACEI) activity was calculated as a percentage of inhibition compared with the conversion rate of ACE in the absence of an inhibitor according to the following formula: […]
Control 1=Absorbance without ACE inhibitory component (=max. ACE activity) [AU]. Control 2=Absorbance without ACE inhibitory component and without ACE (background) [AU]. Sample1=Absorbance in the presence of ACE and the ACE inhibitory component [AU]. Sample 2=Absorbance in the presence of the ACE inhibitory component, but without ACE [AU]. […]

Setting [5] is: simulated gastric fluid, pH 3.5.

Read-outs that look alike come from different tables or passages of the source.

Regarding `CC[C@H](C)[C@H](N)C(=O)N[C@H](C(=O)N1CCC[C@H]1C(=O)O)[C@@H](C)O` [ITP, Isoleucine-Threonine-Proline], half-maximal inhibition in the data set with ACE [1] (IC50) required 50 µM. Moreover, the “% average remaining” value in data set [2] (1 microgram/ml) is 100%. Moreover, in data set [2] (10 microgram/ml), the “% average remaining” value was 100%. In data set [2] (setting [5]), the fraction remaining at 0.5 h, 10 microgram/ml was 81% and the share remaining at 1 h, 10 microgram/ml was 91%. In data set [2], this compound registered a share remaining at 65 min, 10 microgram/ml of 75%; an amount remaining at 1.5 h, 10 microgram/ml of 62%; an amount remaining at 2 h, 10 microgram/ml of 46%. Moreover, the “stability under gastro-intestinal conditions” value in data set [2] (synthetic peptide) is recorded as “excellent stability under gastro-intestinal conditions”. For the same compound, the “Concentration in powder before GIT procedure” value in data set [3] is 903.7 μg g^−1 powder. In addition, the “resistance against GIT digestion” value in data set [3] (in CDBAP) is given as “high resistance against GIT digestion”.
Turning to `CSCC[C@H](N)C(=O)N[C@@H](C)C(=O)N1CCC[C@H]1C(=O)O` [MAP, Methionine-Alanine-Proline], in the data set on ACE [4], the IC50 turned out to be 500 nM. This compound showed an IC50 in the data set on ACE [1] of 3.8 µM. Also, in data set [2], the “stability under gastro-intestinal conditions” value is “reasonably good stability under gastro-intestinal conditions”; the amount remaining at 65 min, 10 microgram/ml was 37%; the share remaining at 1.5 h, 10 microgram/ml is 11%; the fraction remaining at 2 h, 10 microgram/ml is 3%. In data set [2] (setting [5]), this compound displayed an amount remaining at 0.5 h, 10 microgram/ml of 77%. Also, in data set [3], the “Concentration in powder before GIT procedure” value was 2851.4 μg g^−1 powder and the “resistance against GIT digestion” value is “high resistance against GIT digestion”.
